From PMC7751304 (Journal of chemical information and modeling, 2019)

System: low-efflux MDCK cell line
Assay: MDCK cell permeability
Type: in vitro ADME, canine
Conditions: permeability class (low/medium/high) from MDCK Papp

Row | MDCK Class | Compound
1 | medium | CC(C)C[C@@H]1NC(=O)[C@@H](CC(C)C)NC(=O)[C@H]2CCCN2C(=O)[C@H](Cc2ccc(O)cc2)NC(=O)[C@@H](CC(C)C)NC(=O)[C@@H](CC(C)C)NC1=O [compound 4]
2 | medium | CC(C)C[C@@H]1NC(=O)[C@H](CC(C)C)NC(=O)[C@@H](CC(C)C)NC(=O)[C@@H](CC(C)C)NC(=O)[C@H]2CCCN2C(=O)[C@H](Cc2ccc(O)cc2)NC1=O [compound 5]
3 | medium | CC(C)C[C@@H]1NC(=O)[C@H](CC(C)C)NC(=O)[C@@H](CC(C)C)NC(=O)[C@H]2CCCN2C(=O)[C@H](Cc2ccc(O)cc2)NC(=O)[C@H](CC(C)C)NC1=O [compound 6]
4 | high | CC(C)C[C@@H]1NC(=O)[C@@H](CC(C)C)NC(=O)[C@@H](CC(C)C)NC(=O)[C@H]2CCCN2C(=O)[C@H](Cc2ccc(O)cc2)NC(=O)[C@@H](CC(C)C)NC1=O [compound 7]
5 | high | CC(C)C[C@@H]1NC(=O)[C@H](CC(C)C)NC(=O)[C@@H](CC(C)C)NC(=O)[C@H]2CCCN2C(=O)[C@H](Cc2ccc(O)cc2)NC(=O)[C@@H](CC(C)C)NC1=O [compound 8]
